# Binding of CDR-mutated scFvs to a peptide of the spike HR2 region

Binding partner: SARS-CoV-2 spike HR2 peptide, sequence PDVDLGDISGINAS.

The variants keep the heavy chain, the linker and the frameworks of Ab-14 (scFv order VH, three GGGGS repeats, VL).
VH: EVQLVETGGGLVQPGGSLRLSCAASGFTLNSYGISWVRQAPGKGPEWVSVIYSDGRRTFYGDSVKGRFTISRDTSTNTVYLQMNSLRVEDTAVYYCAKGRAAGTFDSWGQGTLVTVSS
VL: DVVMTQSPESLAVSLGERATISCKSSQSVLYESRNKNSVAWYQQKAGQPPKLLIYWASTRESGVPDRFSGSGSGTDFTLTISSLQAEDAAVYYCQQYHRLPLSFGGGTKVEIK

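AAYL50 was designed without a model: most single CDR substitutions and a random sample of double and triple ones. AlphaSeq pools MATa yeast showing the antibodies with MATalpha yeast showing the peptide. After mating in shaken culture at 30 °C for 16 h, diploids were selected and their barcode pairs sequenced. Read counts were normalised to the haploid input and turned into Kd by a linear fit to BCL2-family pairs of known affinity, for each replicate. There are three technical replicates.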

Substitutions are numbered in sequence along the VL above, starting at 1 (not Kabat).
This list gathers variants with a substitution at L102 (VL, numbered from residue 1).
Numbers give log10(Kd / nM), so 0 is 1 nM and 3 is 1 µM. Smaller is tighter.
A mean of the replicates is given; it leaves out those without a signal.
A pair that was not seen in any replicate is written "no signal"; this usually means weak binding, but a binder can also be missed.
The list is sorted by this average, lowest first, undetected variants last.

P101E+L102V: 0.25 (3 of 3 replicates; controls 1 of 9).
L30P+L102F+S103I: 0.75 (3 of 3 replicates; controls 4 of 9).
S62T+L102D: 1.16 (3 of 3 replicates; controls 1 of 9).
S26Q+T59V+L102I: 1.28 (3 of 3 replicates; controls 0 of 9).
K24T+S25T+L102F: 1.43 (3 of 3 replicates; controls 1 of 9).
R34A+H98I+L102I: 1.48 (3 of 3 replicates; controls 0 of 9).
V29T+E32Q+L102R: 1.56 (3 of 3 replicates; controls 0 of 9).
R60L+L102M: 1.68 (3 of 3 replicates; controls 3 of 9).
L102C: 1.77 (3 of 3 replicates; controls 3 of 9).
S58G+L102P: 2.49 (3 of 3 replicates; controls 2 of 9).
Q27N+V29P+L102G: 2.69 (3 of 3 replicates; controls 6 of 9).
S62C+Q96L+L102M: 2.86 (3 of 3 replicates; controls 5 of 9).
A40N+E61Q+L102C: 2.91 (1 of 3 replicates; controls 1 of 9).
S28C+T59M+L102A: 3.14 (3 of 3 replicates; controls 0 of 9).
K36T+W56V+L102I: 3.34 (3 of 3 replicates; controls 7 of 9).
L100S+L102A: 3.64 (3 of 3 replicates; controls 4 of 9).
E61T+L102A: 3.64 (3 of 3 replicates; controls 5 of 9).
L30D+V39S+L102V: 3.65 (1 of 3 replicates; controls 0 of 9).
K24N+K36V+L102K: 4.00 (1 of 3 replicates; controls 3 of 9).
S25N+S33D+L102T: 4.15 (1 of 3 replicates; controls 0 of 9).
A57I+Q95M+L102A: 4.27 (2 of 3 replicates; controls 4 of 9).
S25F+R60E+L102W: 4.32 (2 of 3 replicates; controls 4 of 9).
K36N+A40M+L102T: 4.50 (3 of 3 replicates; controls 3 of 9).
K24N+N35G+L102K: 4.57 (2 of 3 replicates; controls 6 of 9).
Q95Y+L102G: 4.62 (3 of 3 replicates; controls 4 of 9).
K24F+V39Q+L102R: 4.96 (2 of 3 replicates; controls 1 of 9).
S28P+S58E+L102S: 5.12 (2 of 3 replicates; controls 5 of 9).
L100T+P101G+L102T: 5.35 (2 of 3 replicates; controls 3 of 9).
V39D+P101D+L102T: 5.78 (1 of 3 replicates; controls 4 of 9).
A40Q+W56Y+L102T: no signal (0 of 3 replicates; controls 0 of 9).
K36H+L100S+L102M: no signal (0 of 3 replicates; controls 0 of 9).
N35E+L102C: no signal (0 of 3 replicates; controls 3 of 9).
A40G+L102R: no signal (0 of 3 replicates; controls 0 of 9).
S28K+Q95M+L102N: no signal (0 of 3 replicates; controls 0 of 9).
S58G+R99D+L102H: no signal (0 of 3 replicates; controls 0 of 9).
S28T+V39R+L102W: no signal (0 of 3 replicates; controls 0 of 9).
Q27S+S58K+L102M: no signal (0 of 3 replicates; controls 0 of 9).
T59E+L102G: no signal (0 of 3 replicates; controls 0 of 9).
Y31F+A57H+L102Y: no signal (0 of 3 replicates; controls 1 of 9).
H98P+L102N: no signal (0 of 3 replicates; controls 2 of 9).
Y31L+N37Y+L102H: no signal (0 of 3 replicates; controls 0 of 9).
K24P+E32M+L102Y: no signal (0 of 3 replicates; controls 1 of 9).
Q27C+R34V+L102E: no signal (0 of 3 replicates; controls 0 of 9).
V39I+A40Y+L102T: no signal (0 of 3 replicates; controls 4 of 9).
S26M+L30S+L102H: no signal (0 of 3 replicates; controls 1 of 9).
N35E+L102Y: no signal (0 of 3 replicates; controls 0 of 9).
S62L+L102N: no signal (0 of 3 replicates; controls 1 of 9).
R60Y+R99C+L102R: no signal (0 of 3 replicates; controls 0 of 9).

Again, the first 5 entries without any signal:

changes,"log10 Kd (nM), mean",seen in,control signals
A40Q+W56Y+L102T,no signal,0/3,0/9
K36H+L100S+L102M,no signal,0/3,0/9
N35E+L102C,no signal,0/3,3/9
A40G+L102R,no signal,0/3,0/9
S28K+Q95M+L102N,no signal,0/3,0/9

Nonspecific signal, from three strains lacking the peptide, appeared in 18% of pairings of library AAYL50, centred on 4.19 (5% of these signals below 2.99); values are not corrected for it. For each scFv, signals with the empty controls are counted beside the result.

Data: MIT Lincoln Laboratory AlphaSeq set, Engelhart et al. 2022, doi:10.1038/s41597-022-01779-4, as distributed in FLAb.